Source: patent US7964636B2, “Synthesis and use of novel inhibitors and inactivators of protein arginine deiminases” (University of South Carolina, priority 2005, dated 2011)

The chains behind the UniProt entries cited, without tags or fusion partners.
UniProt Q9UM07, whole entry: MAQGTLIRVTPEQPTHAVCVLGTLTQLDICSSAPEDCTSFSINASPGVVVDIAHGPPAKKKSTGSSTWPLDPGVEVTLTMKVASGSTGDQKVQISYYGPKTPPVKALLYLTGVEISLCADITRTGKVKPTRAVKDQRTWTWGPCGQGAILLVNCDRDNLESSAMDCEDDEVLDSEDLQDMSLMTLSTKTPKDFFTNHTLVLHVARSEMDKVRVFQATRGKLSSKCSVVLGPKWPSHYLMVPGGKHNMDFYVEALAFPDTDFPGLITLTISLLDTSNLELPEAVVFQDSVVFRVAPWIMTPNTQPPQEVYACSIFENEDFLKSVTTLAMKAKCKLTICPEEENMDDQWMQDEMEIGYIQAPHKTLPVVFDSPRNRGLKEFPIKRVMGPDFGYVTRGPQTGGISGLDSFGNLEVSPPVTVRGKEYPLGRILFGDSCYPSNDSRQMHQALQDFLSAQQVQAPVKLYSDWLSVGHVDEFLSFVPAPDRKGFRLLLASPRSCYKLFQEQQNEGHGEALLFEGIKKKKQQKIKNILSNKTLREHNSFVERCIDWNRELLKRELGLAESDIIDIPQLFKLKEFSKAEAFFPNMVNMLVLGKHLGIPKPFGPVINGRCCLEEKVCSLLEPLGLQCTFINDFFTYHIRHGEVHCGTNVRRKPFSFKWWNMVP

Target: PAD4 (Homo sapiens, UniProt Q9UM07)
Test: IC50 of FIG. 3 compounds 15 and 19
Format: biochemical

Row | Structure (SMILES) | IC50 [µM]
1 | N=C(CCl)NCCCC(NC(=O)c1ccccc1)C(=O)O (centres unmarked) | 6.67
2 | [N-]=[N+]=Nc1ccc(C(=O)N[C@@H](CCCNC(=N)CF)C(N)=O)cc1 | 25.5
